In this data set the target is T1, hNTCP (Homo sapiens, UniProt Q14973).
T1 sequence (Q14973 1-349): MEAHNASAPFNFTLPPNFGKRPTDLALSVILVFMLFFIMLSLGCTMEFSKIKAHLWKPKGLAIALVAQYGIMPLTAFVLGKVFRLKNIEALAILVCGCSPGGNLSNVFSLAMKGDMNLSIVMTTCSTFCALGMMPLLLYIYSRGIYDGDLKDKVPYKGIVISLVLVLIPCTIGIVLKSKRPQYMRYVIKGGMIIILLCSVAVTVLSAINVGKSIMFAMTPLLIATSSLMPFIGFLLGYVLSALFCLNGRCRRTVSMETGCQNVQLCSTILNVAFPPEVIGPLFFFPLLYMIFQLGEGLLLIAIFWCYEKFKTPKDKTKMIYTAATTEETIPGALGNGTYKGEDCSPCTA
As to the kind of experiment: Vincristine uptake screen, HeLa cells overexpressing hNTCP. It is filed as in vitro ADME.

The values below come from PMC10443802, “Targeting a xenobiotic transporter to ameliorate vincristine-induced sensory neuropathy” (JCI Insight, 2023).

As to `CC[C@]1(O)C[C@H]2CN(CCc3c([nH]c4ccccc34)[C@@](C(=O)OC)(c3cc4c(cc3OC)N(C=O)[C@H]3[C@@](O)(C(=O)OC)[C@H](OC(C)=O)[C@]5(CC)C=CCN6CC[C@]43[C@@H]65)C2)C1` [Vincristine, vincristine], the “Vincristine uptake (% of vector control)” value is listed as 115.00 % of vector control.
